Reference: patent publication US20240043392A1, “NOVEL BIPHENYL DERIVATIVE AND PREPARATION METHOD AND PHARMACEUTICAL USE THEREOF” (XI'AN XINTON PHARMACEUTCAL RESEARCH CO., LTD., priority 2021, published 2024)

Tested on: C57BL/6 mice
Assay: Acute toxicity test, intraperitoneal injection
Conditions: 250 mg/kg and 125 mg/kg

Row | Substance | death of mice
1 | (4-((3′-(3-(4-(((1-carboxy-2-hydroxyethyl)amino) methyl)-1H-1,2,3-triazole-1-)propane oxy)-2,2′-dimethyl-[1,1′-biphenyl]-3-)methoxy)-5-chloro-2-((5-cyanopyridin-3-)methoxy)ben zyl)serine | did not die
2 | (5-chloro-2-((5-cyanopyridin-3-)methoxy)-4-((3′-(3-(4-((((R)-1-ethoxy-3-hydroxy-1-oxo propan-2-)amino)methyl)-1H-1,2,3-triazol-1-)propoxy)-2,2′-dimethyl-[1,1′-biphenyl]-3-)meth oxy) benzyl)-D-serine ethyl ester | did not die
